{
  "sequences": {"note": "By UniProt entry, the sequences of proteins in these tests, tags left out.", "UniProt P35348, whole entry": "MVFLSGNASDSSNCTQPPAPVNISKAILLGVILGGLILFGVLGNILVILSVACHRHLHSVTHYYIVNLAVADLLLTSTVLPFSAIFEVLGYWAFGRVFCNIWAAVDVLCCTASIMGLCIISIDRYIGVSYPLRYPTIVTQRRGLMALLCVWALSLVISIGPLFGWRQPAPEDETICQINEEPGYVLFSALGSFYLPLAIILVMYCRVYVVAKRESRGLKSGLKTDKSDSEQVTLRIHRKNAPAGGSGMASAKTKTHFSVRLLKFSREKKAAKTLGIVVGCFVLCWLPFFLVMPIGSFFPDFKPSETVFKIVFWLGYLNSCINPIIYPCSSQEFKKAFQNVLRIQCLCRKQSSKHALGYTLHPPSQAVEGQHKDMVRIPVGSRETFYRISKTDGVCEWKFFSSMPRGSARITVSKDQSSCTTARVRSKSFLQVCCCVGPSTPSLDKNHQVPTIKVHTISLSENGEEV", "UniProt P35368, whole entry": "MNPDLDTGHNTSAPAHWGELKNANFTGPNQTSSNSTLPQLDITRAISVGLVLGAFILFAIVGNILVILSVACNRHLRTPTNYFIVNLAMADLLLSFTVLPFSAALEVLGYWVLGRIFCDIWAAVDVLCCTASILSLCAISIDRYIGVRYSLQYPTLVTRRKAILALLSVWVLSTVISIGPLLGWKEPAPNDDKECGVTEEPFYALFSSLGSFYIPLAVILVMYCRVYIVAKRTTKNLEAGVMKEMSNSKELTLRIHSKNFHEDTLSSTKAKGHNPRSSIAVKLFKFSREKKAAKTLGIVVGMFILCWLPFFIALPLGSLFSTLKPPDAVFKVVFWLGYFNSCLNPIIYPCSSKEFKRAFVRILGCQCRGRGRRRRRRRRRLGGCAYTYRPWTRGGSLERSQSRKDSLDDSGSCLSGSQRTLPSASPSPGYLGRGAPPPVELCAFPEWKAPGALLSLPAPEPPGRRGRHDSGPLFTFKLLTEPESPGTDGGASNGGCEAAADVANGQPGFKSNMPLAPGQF", "UniProt P25100, whole entry": "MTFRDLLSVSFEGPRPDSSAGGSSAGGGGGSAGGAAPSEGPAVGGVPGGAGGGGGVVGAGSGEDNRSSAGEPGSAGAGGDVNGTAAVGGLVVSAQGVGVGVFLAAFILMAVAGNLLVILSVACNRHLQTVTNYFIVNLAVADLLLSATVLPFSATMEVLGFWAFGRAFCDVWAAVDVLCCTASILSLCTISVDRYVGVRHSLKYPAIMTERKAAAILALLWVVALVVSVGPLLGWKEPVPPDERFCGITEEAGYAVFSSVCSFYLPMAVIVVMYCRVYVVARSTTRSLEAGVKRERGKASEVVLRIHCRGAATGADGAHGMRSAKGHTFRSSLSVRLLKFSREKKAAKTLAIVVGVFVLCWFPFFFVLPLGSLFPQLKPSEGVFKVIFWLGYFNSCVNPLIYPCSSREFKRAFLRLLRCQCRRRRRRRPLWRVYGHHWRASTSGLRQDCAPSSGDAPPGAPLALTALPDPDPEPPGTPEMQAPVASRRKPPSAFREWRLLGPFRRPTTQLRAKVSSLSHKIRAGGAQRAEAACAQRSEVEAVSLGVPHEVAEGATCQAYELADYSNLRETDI"},
  "source": "patent US20230372302A1",
  "about": "(priority 2019, published 2023)",
  "key": {"[1]": {"biological_target": "recombinant human alpha 1A adrenergic receptor (ADR1A) (Homo sapiens, UniProt P35348)", "assay": "Radioligand binding, alpha 1A adrenergic receptor (Adr1A)", "conditions": "FIG. 2A-2B"}, "[2]": {"tested_on": "alpha 1 subtypes (1A, 1B, 1D)", "assay": "Assays of function, antagonism at alpha 1 subtypes", "assay_type": "cell-based, human", "conditions": "result in words"}, "[3]": {"biological_target": "recombinant human alpha 1B adrenergic receptor (ADR1B) (Homo sapiens, UniProt P35368)", "assay": "Radioligand binding, alpha 1B adrenergic receptor (Adr1B)"}, "[4]": {"biological_target": "recombinant human alpha 1D adrenergic receptor (ADR1D) (Homo sapiens, UniProt P25100)", "assay": "Radioligand binding, alpha 1D adrenergic receptor (Adr1D)"}},
  "note": "Some compounds may have been tested in ways that are not shown here.",
  "data": [
    {"smiles": "CCC(=O)N(c1ccccc1)C1CCN(CCc2ccccc2)CC1", "values": [
      {"measurement": "binding at alpha 1A (bind all alpha 1 subtypes)", "setting": "[1]", "value": "bind all alpha 1 subtypes"},
      {"measurement": "act as antagonists at all alpha 1 subtypes", "setting": "[2]", "value": "act as antagonists"},
      {"measurement": "greater affinity at the 1B compared to NE", "setting": "[3]", "value": 2, "unit": "fold"},
      {"measurement": "binding at alpha 1B (bind all alpha 1 subtypes)", "setting": "[3]; FIG. 3A-3B", "value": "bind all alpha 1 subtypes"},
      {"measurement": "binding affinity (BA) at 1B compared with NE", "setting": "[3]; comparison in words", "value": "greater binding affinity"},
      {"measurement": "less binding affinity for the A-1D subtype than for A-1A and A-1B", "setting": "[4]", "value": 5, "unit": "fold"},
      {"measurement": "binding at alpha 1D (bind all alpha 1 subtypes)", "setting": "[4]; FIG. 4A-4B", "value": "bind all alpha 1 subtypes"}
    ]}
  ]
}
